Source: patent US20200323802A1, “SUPPORTING IMMUNOMODULATORY AGENT” (Flexopharm Brain GMBH & Go. KG, priority 2015, published 2020)

System: Treg cells
Test: Treg cells in MS patients before and after 14 days of treatment with sodium propionate plus MS drug
Type: in vivo, human
Conditions: pooled comparison group, patient-specific dose of the MS drug together with sodium propionate 2×0.5 g daily, before vs after 14 days, FIG. 6
Text: The disproportionate increase in the amount of Treg cells signifies a corresponding reduction in the autoimmune response. Fumarates and short-chain fat carboxylates work together synergistically.

B1: interferon beta: established agent for the treatment of MS, given together with sodium propionate (protein, UniProt P01574 22-187, looked up)
Interferon beta: MSYNLLGFLQRSSNFQCQKLLWQLNGRLEYCLKDRMNFDIPEEIKQLQQFQKEDAALTIYEMLQNIFAIFRQDSSSTGWNETIVENLLANVYHQINHLKTVLEEKLEKEDFTRGKLMSSLHLKRYYGRILHYLKAKEYSHCAWTIVRVEILRNFYFINRLTGYLRN
- increase in number of Treg cells by a factor: 1.1
